Measured values as given in patent US11603352 (University of California, dated 2023).

B1: CSN3 (subunit 3 of the human COP9 signalosome) (other, UniProt Q9UNS2 1-423, looked up)
chain: MASALEQFVNSVRQLSAQGQMTQLCELINKSGELLAKNLSHLDTVLGALDVQEHSLGVLAVLFVKFSMPSVPDFETLFSQVQLFISTCNGEHIRYATDTFAGLCHQLTNALVERKQPLRGIGILKQAIDKMQMNTNQLTSIHADLCQLCLLAKCFKPALPYLDVDMMDICKENGAYDAKHFLCYYYYGGMIYTGLKNFERALYFYEQAITTPAMAVSHIMLESYKKYILVSLILLGKVQQLPKYTSQIVGRFIKPLSNAYHELAQVYSTNNPSELRNLVNKHSETFTRDNNMGLVKQCLSSLYKKNIQRLTKTFLTLSLQDMASRVQLSGPQEAEKYVLHMIEDGEIFASINQKDGMVSFHDNPEKYNNPAMLHNIDQEMLKCIELDERLKAMDQEITVNPQFVQKSMGSQEDDSGNKPSSYS
notes: Studied as a subunit within the reconstituted CSN or CSNn complex
B2: CSN2 (subunit 2 of the human COP9 signalosome) (other, UniProt P61201 1-443, looked up)
chain: MSDMEDDFMCDDEEDYDLEYSEDSNSEPNVDLENQYYNSKALKEDDPKAALSSFQKVLELEGEKGEWGFKALKQMIKINFKLTNFPEMMNRYKQLLTYIRSAVTRNYSEKSINSILDYISTSKQMDLLQEFYETTLEALKDAKNDRLWFKTNTKLGKLYLEREEYGKLQKILRQLHQSCQTDDGEDDLKKGTQLLEIYALEIQMYTAQKNNKKLKALYEQSLHIKSAIPHPLIMGVIRECGGKMHLREGEFEKAHTDFFEAFKNYDESGSPRRTTCLKYLVLANMLMKSGINPFDSQEAKPYKNDPEILAMTNLVSAYQNNDITEFEKILKTNHSNIMDDPFIREHIEELLRNIRTQVLIKLIKPYTRIHIPFISKELNIDVADVESLLVQCILDNTIHGRIDQVNQLLELDHQKRGGARYTALDKWTNQLNSLNQAVVSKLA
notes: as for B1

Experiments:
[1] = target: B2; assay: integrative structures of CSN and CSNn from cross-links
[2] = target: B1; assay: PRM targeted quantitation of the DHSO cross-linked peptide, CSN against CSNn (with CSN9)

| Binder | binding result [1] | relative abundance ratio (CSN/CSNn) of the inter-subunit cross-link [2] |
| --- | --- | --- |
| B1 | binds |  |
| B2 |  | 30.1 ratio (CSN/CSNn) |
